The values that follow come from patent publication US7410998B2, “Inhibitors of NADH:ubiquinone oxidoreductase” (The Scripps Research Institute, priority 2000, dated 2008).

Chains of the proteins cited; added tags and fusions are not shown. Residues count along the entry.
UniProt P03887, whole entry: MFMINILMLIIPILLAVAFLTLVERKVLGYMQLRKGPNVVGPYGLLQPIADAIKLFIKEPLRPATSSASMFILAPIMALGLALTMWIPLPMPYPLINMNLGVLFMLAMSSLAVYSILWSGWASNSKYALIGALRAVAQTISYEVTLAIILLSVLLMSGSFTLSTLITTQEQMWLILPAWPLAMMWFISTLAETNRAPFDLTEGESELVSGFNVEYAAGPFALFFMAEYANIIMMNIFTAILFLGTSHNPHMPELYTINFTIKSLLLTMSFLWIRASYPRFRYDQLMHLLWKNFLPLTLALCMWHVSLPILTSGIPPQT
UniProt P17694, 34-463 limits assumed: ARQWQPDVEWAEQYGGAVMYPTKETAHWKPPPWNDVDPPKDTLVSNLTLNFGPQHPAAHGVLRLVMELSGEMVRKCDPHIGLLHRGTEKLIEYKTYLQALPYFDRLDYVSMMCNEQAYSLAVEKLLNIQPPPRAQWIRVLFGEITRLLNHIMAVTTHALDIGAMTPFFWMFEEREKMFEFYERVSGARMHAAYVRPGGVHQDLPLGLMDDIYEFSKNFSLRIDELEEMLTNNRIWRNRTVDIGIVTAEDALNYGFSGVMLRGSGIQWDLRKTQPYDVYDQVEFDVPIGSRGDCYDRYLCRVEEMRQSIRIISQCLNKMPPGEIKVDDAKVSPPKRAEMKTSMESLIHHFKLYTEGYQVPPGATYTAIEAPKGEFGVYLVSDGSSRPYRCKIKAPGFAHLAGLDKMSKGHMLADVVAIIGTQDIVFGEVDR
UniProt P42026, 38-216 limits assumed: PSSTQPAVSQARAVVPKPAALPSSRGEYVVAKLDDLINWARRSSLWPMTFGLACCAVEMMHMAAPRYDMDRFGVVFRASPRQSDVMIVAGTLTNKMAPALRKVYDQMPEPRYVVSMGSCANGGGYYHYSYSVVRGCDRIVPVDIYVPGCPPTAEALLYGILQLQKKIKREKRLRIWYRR

This assay concerns the target NADH:ubiquinone oxidoreductase (Complex I) (Bos taurus, UniProt P03887+P17694+P42026). The assay is described as follows: inhibitory potency for NADH:ubiquinone oxidoreductase activity in vitro using bovine heart electron transport particles. The format is biochemical. On the procedure: This primary library was screened for inhibitory potency against NADH:ubiquinone oxidoreductase activity as described below. […] As described below, a series of focused libraries were then synthesized using a combination of solid and solution phase chemistry in an attempt to evaluate particular structural sub-regions (denoted I-IV in FIG. 9) of the lead structure, thus allowing structure activity relationships to be developed.
SAR optimization was carried out on each of the four regions (I-IV) of interest guided by the inhibitory potency for NADH:ubiquinone oxidoreductase activity in vitro using bovine heart electron transport particles (see Singer (Singer, T. P. (1974). In Methods of Biochemical Analysis (Glick, D. ed., Wiley New York), 22, pp. 123-175) for details).
FIG. 15 is a graphical summary of structure activity trends observed for benzopyran-based inhibitors of NADH:ubiquinone oxidoreductase. SAR optimization was carried out on each of the four regions (I-IV) of interest guided by the inhibitory potency for NADH:ubiquinone oxidoreductase activity in vitro using bovine heart electron transport particles (see Singer (Singer, T.P. (1974). In Methods of Biochemical Analysis (Glick, D. ed., Wiley New York), 22, pp. 123-175) for details).

For the compound `COc1cc(Br)c(COC(=O)c2ccc3c(c2)C=CC(C)(C)O3)cc1OC`, the IC50 (usually the point on the concentration scale where inhibition reaches its midpoint) is 49 nM.

Regarding `COc1cc(COC(=O)c2ccc3c(c2O)C=CC(C)(C)O3)cc(OC)c1OC`, the IC50 amounted to 44 nM.
